Laboratory results from patent US8846656B2, “Tetrahydropyrido-pyridine and tetrahydropyrido-pyrimidine compounds and use thereof as C5a receptor modulators” (Novartis AG, priority 2011, dated 2014).

Protein sequences, listed by entry. Tags and fused reporters are not part of them. Lines headed by an entry give the natural chain unless they say otherwise; changes in a name come on top.
UniProt P21730: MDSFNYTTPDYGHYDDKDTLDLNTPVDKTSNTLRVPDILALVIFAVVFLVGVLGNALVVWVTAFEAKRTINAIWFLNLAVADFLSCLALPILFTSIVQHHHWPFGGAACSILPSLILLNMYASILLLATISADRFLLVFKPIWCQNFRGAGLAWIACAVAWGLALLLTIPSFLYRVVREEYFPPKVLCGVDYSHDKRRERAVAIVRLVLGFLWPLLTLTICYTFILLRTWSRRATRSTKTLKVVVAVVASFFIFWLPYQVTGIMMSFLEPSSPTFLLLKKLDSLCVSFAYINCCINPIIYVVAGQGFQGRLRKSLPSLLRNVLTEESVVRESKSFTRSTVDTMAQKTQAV

Assays:
[1] = molecular target: human C5aR (Homo sapiens (Human), UniProt P21730); assay: FLIPR assay: inhibition of C5a-mediated calcium mobilization; format: cell-based; settings: stable cell line over expressing human C5aR & Gα15, human C5a at EC50 (0.1-0.25 nM)
Protocol: Compounds were tested for their ability to inhibit C5a-mediated calcium mobilization using a stable cell line over expressing the human C5aR & the Gα15 protein on the FLIPR (Fluorescent Imaging Plate Reader) Tetra system. Cells were maintained in culture media containing DMEM (Dulbecco's Modified Eagle Medium) with 4.5 g/L glucose, 10% fetal bovine serum, 100 U/mL, 1× non-essential amino acid, and 250 μg/mL G418 (Geneticin). Prior to testing of compounds, cells were plated at 10,000 cells/well in clear bottom 384-well black plate, and incubated overnight at 37° C. with 5% CO2. On the day of experiment, culture media was removed, and replaced with assay buffer HBSS (Hanks' Balanced Salt Solution) with 20 mM HEPES (4-(2-hydroxyethyl)-1-piperazineethanesulfonic acid) and 0.1% BSA (bovine serum albumin) BSA containing calcium 5 dye (Molecular Devices) and 2.5 mM probenecid. After 1 hour incubation at 37° C., 5% CO2 for 60 min, cells were pre-incubated with compounds for 30 minutes at room temperature, in 1% DMSO (dimethyl sulfoxide).

[2] = system: CD11b; assay: Human whole blood CD11b up-regulation assay; format: cell-based; settings: 2 nM human C5a, CD15+ granulocytes, read-out: hCD11b IC50
Protocol: Whole blood was collected in sodium heparin tubes and the assay started within 2 hours of the blood draw. The blood was incubated with compounds in 1% DMSO (dimethyl sulfoxide) at room temperature for 10 minutes with gentle rocking. 2 nM of human C5a was then added for 15 minutes at room temperature with gentle rocking. Following the C5a incubation period cells were washed once with cold FACS (fluorescence-activated cell sorting) buffer (phosphate buffered saline+0.5% bovine serum albumin) FITC (fluorescein isothiocyanate) mouse anti-human CD15 and PE-Cy5 (phycoerythrin-cyanine 5) mouse anti-human CD11b antibodies (Becton Dickinson) were gently mixed with the cells and allowed to incubate for 30 minutes on ice protected from the light. Cells were then washed three times with cold FACS buffer. Red blood cells (RBC) were lysed by incubating with BD FACS lysis buffer (Becton Dickinson) for 10 minutes at room temperature. Cells were pelleted and the lysing procedure was repeated until all RBCs were lysed. The remaining leukocytes were resuspended in BD lysis buffer. Samples were acquired on the LSR^11 flow cytometer and 10,000 events of the CD15+ granulocyte population were collected. The CD11b median fluorescence intensity of the CD 15+ cell population was evaluated using FACSDiva software (Becton Dickinson).

SMILES | IC50 [1] [nM] | IC50 [2] [nM]
Cc1cccc(C)c1-c1nc2c(c(N3CCCC(O)C3)n1)CN(c1cc(C(C)C)nn1C)CC2 (racemic) [Example 16-V, racemic 1-(2-(2,6-dimethylphenyl)-6-(3-isopropyl-1-methyl-1H-pyrazol-5-yl)-5,6,7,8-tetrahydropyrido[4,3-d]pyrimidin-4-yl)piperidin-3-ol] | 338 | 
Cc1ccc2[nH]nc(C)c2c1-c1nc2c(c(N3CC[C@@H]4OC[C@]4(C)C3)n1)CN(c1c(Cl)c(C3CC3)nn1C)CC2 (racemic) [Example 69-L, (1S*,6S*)-3-(6-(4-chloro-3-cyclopropyl-1-methyl-1H-pyrazol-5-yl)-2-(3,5-dimethyl-1H-indazol-4-yl)-5,6,7,8-tetrahydropyrido[4,3-d]pyrimidin-4-yl)-1-methyl-7-oxa-3-azabicyclo[4.2.0]octane] | 1 | 
Cc1ccc(C(C)C)cc1N1CCc2nc(-c3c(C)ccc4[nH]ncc34)cc(C)c2C1 [Example 41-D, 6-(5-Isopropyl-2-methylphenyl)-4-methyl-2-(5-methyl-1H-indazol-4-yl)-5,6,7,8-tetrahydro-1,6-naphthyridine] | 49 | 
CCO[C@@H]1CCN(c2nc(-c3c(C)ccc4[nH]nc(C)c34)nc3c2CN(c2c(Cl)c(C4CC4)nn2C)CC3)CC1(C)C [Example 55-H, (R)-6-(4-chloro-3-cyclopropyl-1-methyl-1H-pyrazol-5-yl)-2-(3,5-dimethyl-1H-indazol-4-yl)-4-(4-ethoxy-3,3-dimethylpiperidin-1-yl)-5,6,7,8-tetrahydropyrido[4,3-d]pyrimidine] |  | 4
